Compound activity from PubChem.
JMJD2E inh: inhibitors of human JMJD2E histone demethylase. Potency, µM (titrated, usually from 57.1 µM), inactives show at the highest dose activity change, negative = inhibition, actives largely listed as inhibitors. 230,000 compounds, 1.6% hits. AID 2147. JMJD2E catalytic domain, FDH-coupled NADH fluorescence (FDH is formaldehyde dehydrogenase);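 also: potency is read from the fitted curve at half-maximal effect; 0% = wells with enzyme and -100% = buffer wells without enzyme; nearly all actives have a fitted effect of over 50% in size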
LMNA splice mod: LMNA splicing modulation. HeLa LMNA splicing GFP/RFP minigene ratio, 48 h. AID 1487. 200,000 compounds, 0.01% hits. Potency, µM (highest dose often 46.1 µM), for the others: at the highest dose ratio change, negative = inhibition, hits mostly inhibitors; active = well fitted inhibition curve with a large enough effect in the signal ratio, with a control signal flat, not every such curve was filed as active; inconclusive = small, poorly fitted or top-dose-only effect, or effect the other way, or a change in a side signal; the % refers to the signal ratio; also: potency is read from the fitted curve at half-maximal effect; % is scaled to controls: 0 for no effect and ±100 for the full control effect
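Read-out is the ratio of GFP to DsRed2 object intensity, acquired by 488 nm laser-scanning cytometry on HeLa lamin A-EGFP minigene reporter cells. Compound incubation 48 hrs at 37 °C in Opti-MEM with 2% FBS; DMSO 0.5% final.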
ALDH1A1 block: blocks purified human ALDH1A1 activity. P00352. Purified ALDH1A1, NADH fluorescence, propionaldehyde substrate. Potency, µM (titrated, usually from 75.3 µM), for the others: at the top dose activity, negative = inhibition, most hits filed as inhibitors. 220,000 compounds, 7.3% hits; active = well fitted inhibition curve with a large enough effect, not every such curve was filed as active; inconclusive = small, poorly fitted or top-dose-only effect, or another doubt; inactive = no such curve, though single readings can be large or run the other way;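 also: potency is read from the fitted curve at half-maximal effect; plate controls were no enzyme wells and a reference inhibitor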
miR-21 reporter: miR-21 reporter, rising signal | HeLa miR-21 FLuc reporter, luciferase, 48 h | Potency, µM (doses to about 38.3 µM), inactives show at the top dose reporter change, positive = more light | 340,000 tested, under 10 active | AID 2288; active = well fitted rising curve with a large enough effect; inconclusive = small, poorly fitted or top-dose-only effect; inactive = no such curve, though single readings can be large or run the other way;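 note: % of control where 0% means no effect; miR-21 action dims this reporter so a rising signal means less miR-21 action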
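Using DMEM plus 10% FBS, HeLa miR-21-FLuc cells are incubated with test compounds (final up to about 40uM) for 48 hours; firefly luciferase signal is then imaged following reagent-mediated lysis.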
Sfp PPTase inh: blocks B. subtilis Sfp PPTase activity | hit rate 3.5% among 310,000 | Potency, µM, for inactives: max response, negative = inhibition, hits mostly inhibitors | Biochemical Sfp PPTase activity, qHTS | Q9F4F7; active = well fitted inhibition curve with a large enough effect; inconclusive = small, poorly fitted or top-dose-only effect, or another doubt; inactive = no such curve, though single readings can be large or run the other way;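 also: the enzyme is Sfp with the accession as filed and its product quenches rhodamine fluorescence; potency is read from the fitted curve at half-maximal effect; 0% = enzyme reaction without inhibitor and -100% = no enzyme wells; top concentration of the series not given in the record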
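After 15 min at room temperature with compound, 15 nM Sfp received 5 uM rhodamine-CoA plus 12.5 uM BHQ-2-ybbR (50 mM Hepes pH 7.6, 10 mM MgCl2). Rate came from the fluorescence difference over 30 min, ex 525/em 598 nm.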
G9a inh: blocks human histone lysine methyltransferase G9a; Q96KQ7; G9a H3K9 monomethylation, AlphaScreen, 2 h; 350,000 compounds, 8.8% hits; AID 504332; Potency, µM (series often up to 102 µM), for the others: at the top dose activity, negative = inhibition, actives largely listed as inhibitors; also: potency is read from the fitted curve at half-maximal effect; % is scaled to controls: 0 for no effect and ±100 for the full control effect; nearly all actives have a fitted effect of over 75% in size
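Quantitative HTS format: methyltransferase activity on a biotin-tagged H3K9 peptide is measured by AlphaScreen, using a rabbit anti-monomethyl-H3K9 antibody with streptavidin donor and anti-IgG acceptor beads. Final levels are 20 nM enzyme, 500 nM peptide, 20 uM SAM; 2 h RT.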
* = called active by the depositor; ? = inconclusive; nt = not tested or not shown; [ ] = remark or other dose. A selection: hits, their analogues and other compounds. The true share with any hit is near 13%. Unless noted, calls follow the shape of the dose curve; as a rule, active = well fitted curve in the direction sought with a large enough effect; inconclusive = small, poorly fitted or top-dose-only effect, or another doubt; inactive = no such curve, though single readings can be large; an effect the other way counts as inactive or inconclusive.

No.	Structure	JMJD2E inh	LMNA splice mod	ALDH1A1 block	miR-21 reporter	Sfp PPTase inh	G9a inh
1	Cc1noc(-c2ccc(CSCCC(=O)O)cc2)c1NC(=O)OC(C)c1ccccc1Cl (stereo not drawn)	nt	nt	nt	nt	1%	nt
2	COc1ccc(CCC(C)NC(=O)Cc2ccc(OC)c(OC)c2)c(OC)c1 (stereo not drawn)	nt	nt	nt	4%	9%	-13%[2.33 µM]
3	COC(=O)c1ccc(CN2C(=O)NC(CC(C)C)C2=O)cc1 (stereo not drawn)	3%	nt	5%	-1%	8%	5%
4	O=C(NC(=S)Nc1cc(C(F)(F)F)ccc1Cl)c1ccccc1	0%	12%[0.0737 µM]	25µM*	-13%	-27%	10%[0.501 µM]
5	CCCOc1ccc(C2C(=O)N(C3CCCCCC3)CC(=O)N2CCC)cc1OC (stereo not drawn)	nt	2%[46 µM]	nt	-11%	nt	-4%[59 µM]
6	COc1cccc(/C=N/n2c(COc3ccccc3)n[nH]c2=S)c1OC	nt	nt	nt	-16%	-21%	8.9µM*
7	COc1ccccc1/C=C/C=N/n1c(COc2ccccc2)n[nH]c1=S	-30%	12%	?	-14%	11%	3.5µM*
8	Cc1n[nH]c(=S)n1/N=C/c1ccccc1OCc1ccc(Cl)cc1	-6%	-2%	-6%	-89%	50µM*	?
9	COc1cccc(/C=N/n2c(COc3ccccc3)n[nH]c2=S)c1O	nt	nt	nt	0%	?	16µM*
10	Cc1ccc(CN(Cc2ccco2)C(=O)COc2cc(C)c(Cl)c(C)c2)cc1	nt	nt	nt	8%	nt	48%[59 µM]
11	O=C1N=c2ccc(Br)cc2=C1c1sc(=O)[nH]c1O	nt	nt	nt	-4%	-29%	45µM*
12	O=C(Nc1ccc(F)cc1)c1ccc2c(c1)NC(=O)c1ccccc1S2	nt	nt	nt	28%	nt	-28%[59 µM]
13	COc1ccc(C2C(C(=O)c3ccco3)=C(O)C(=O)N2CC2CCCO2)cc1OC (stereo not drawn)	nt	nt	nt	2%	-1%	50µM*
14	CC(C)(C)c1ccc(C2C(C(=O)c3ccco3)=C(O)C(=O)N2CC2CCCO2)cc1 (stereo not drawn)	nt	nt	nt	-1%	-6%	-11%[59 µM]
15	O=C(C1=C(O)C(=O)N(CC2CCCO2)C1c1ccccc1)c1ccco1 (stereo not drawn)	nt	nt	nt	2%	18%	45µM*
16	O=C(C1=C(O)C(=O)N(CC2CCCO2)C1c1cccc(Cl)c1)c1ccco1 (stereo not drawn)	nt	nt	nt	0%	-6%	?
17	O=C(C1=C(O)C(=O)N(CC2CCCO2)C1c1cccnc1)c1ccco1 (stereo not drawn)	3%	-1%	-8%	-1%	11%	40µM*
18	Fc1ccc(Nc2ncnc3c2nc2n3CCCCC2)c(F)c1	nt	-13%[46 µM]	nt	-11%	nt	1%[59 µM]
19	CCn1cc(CN2CCC(n3nccc3NC(=O)Cc3ccccc3)CC2)c(C)n1	nt	nt	nt	-2%	14%	51%
20	Cc1cc(C)c(-c2n[nH]c3c2C(c2ccccc2F)N(Cc2ccco2)C3=O)c(O)c1 (stereo not drawn)	nt	nt	nt	-2%	nt	28%[59 µM]
21	COc1cc(C(=O)Oc2c(Sc3ccc(C)cc3)c(C)nn2-c2ccccc2)cc(OC)c1OC	nt	nt	nt	15%	nt	14µM*
22	Cc1nn(C(=O)COc2ccc(Cl)cc2)c(C)c1Sc1ccccc1	nt	nt	nt	-2%	nt	-21%[59 µM]
23	COCC(=O)Oc1c(Sc2ccc(C)cc2)c(C)nn1C(C)(C)C	nt	nt	nt	11%	nt	?
24	CCCC(=O)Oc1c(Sc2ccc(Cl)cc2)c(C)nn1-c1ccccc1	nt	nt	nt	-1%	nt	4µM*
25	Cc1ccc(Sc2c(C)nn(-c3ccccc3)c2OC(=O)CC(C)C)cc1	nt	nt	nt	7%	nt	8.9µM*

The closing two records of the section above lead into the next:
No.	Structure	JMJD2E inh	LMNA splice mod	ALDH1A1 block	miR-21 reporter	Sfp PPTase inh	G9a inh
24	CCCC(=O)Oc1c(Sc2ccc(Cl)cc2)c(C)nn1-c1ccccc1	nt	nt	nt	-1%	nt	4µM*
25	Cc1ccc(Sc2c(C)nn(-c3ccccc3)c2OC(=O)CC(C)C)cc1	nt	nt	nt	7%	nt	8.9µM*
26	COc1ccccc1C(=O)Oc1c(Sc2ccccc2)c(C)nn1-c1ccccc1	nt	nt	nt	25%	nt	-28%[59 µM]
27	O=C(Cc1ccccc1)NC1CCSc2ccccc21 (stereo not drawn)	nt	nt	nt	-11%	15%	24%
28	COc1ccc([N+](=O)[O-])cc1N	nt	nt	-6%	nt	nt	nt
29	Cc1ccccc1CNC(=O)CN1C(=O)C2CCCCN2c2ccc(C(=O)N3CCCC3)cc21 (stereo not drawn)	nt	?	nt	1%	nt	-1%[59 µM]

3 compounds out of the list, arranged by SMILES length, falling.
No.	Structure	JMJD2E inh	LMNA splice mod	ALDH1A1 block	miR-21 reporter	Sfp PPTase inh	G9a inh
29	Cc1ccccc1CNC(=O)CN1C(=O)C2CCCCN2c2ccc(C(=O)N3CCCC3)cc21 (stereo not drawn)	nt	?	nt	1%	nt	-1%[59 µM]
26	COc1ccccc1C(=O)Oc1c(Sc2ccccc2)c(C)nn1-c1ccccc1	nt	nt	nt	25%	nt	-28%[59 µM]
28	COc1ccc([N+](=O)[O-])cc1N	nt	nt	-6%	nt	nt	nt
